Measurements: patent US20060128645A1, “Inhibition of proliferation and infiltration of brain tumor cells caused by expression of ampa-type glutamate receptor subunit” (priority 2002, published 2006)

By UniProt entry, the sequences of proteins in these tests, tags left out. Residues count along the entry.
UniProt P42261, 19-906: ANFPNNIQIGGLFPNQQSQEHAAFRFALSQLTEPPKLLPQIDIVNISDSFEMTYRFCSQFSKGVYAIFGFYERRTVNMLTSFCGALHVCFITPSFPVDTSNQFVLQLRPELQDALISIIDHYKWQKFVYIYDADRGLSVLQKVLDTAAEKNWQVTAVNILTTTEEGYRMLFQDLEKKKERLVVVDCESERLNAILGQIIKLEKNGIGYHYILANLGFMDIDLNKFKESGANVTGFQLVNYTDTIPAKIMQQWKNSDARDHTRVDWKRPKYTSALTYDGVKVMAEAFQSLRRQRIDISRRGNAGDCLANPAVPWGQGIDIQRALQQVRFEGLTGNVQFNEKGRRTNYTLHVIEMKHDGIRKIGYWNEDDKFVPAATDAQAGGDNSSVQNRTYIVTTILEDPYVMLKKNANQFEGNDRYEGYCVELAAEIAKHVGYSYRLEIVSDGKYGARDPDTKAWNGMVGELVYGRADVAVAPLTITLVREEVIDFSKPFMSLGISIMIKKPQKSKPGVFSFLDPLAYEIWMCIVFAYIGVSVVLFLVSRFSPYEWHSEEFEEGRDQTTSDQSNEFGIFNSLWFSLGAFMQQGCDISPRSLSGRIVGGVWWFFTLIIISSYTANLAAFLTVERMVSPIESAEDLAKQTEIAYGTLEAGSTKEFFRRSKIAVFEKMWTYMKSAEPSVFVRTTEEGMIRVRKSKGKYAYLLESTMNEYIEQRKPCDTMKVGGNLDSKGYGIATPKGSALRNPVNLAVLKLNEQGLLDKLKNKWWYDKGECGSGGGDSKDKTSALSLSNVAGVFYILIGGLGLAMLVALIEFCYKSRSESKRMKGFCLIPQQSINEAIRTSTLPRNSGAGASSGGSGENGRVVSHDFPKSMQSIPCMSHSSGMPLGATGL

Biological target: T1, Ca^2+-permeable AMPARs in glioblastoma cells in primary culture (Homo sapiens, UniProt P42261)
T1 construct: To examine functional expression of Ca^2+-permeable AMPARs in glioblastoma cells in primary culture; endogenous in cells; host or cells: primary (explant) cultures of glioblastoma multiforme surgical samples
Experiment: AMPA-induced [Ca2+]i changes (fura-2 AM) in primary cultured glioblastoma cells
Format: cell-based
Description: Cells were loaded with fura 2-AM (Dojin) at room temperature for 40 min. Fluorescence images were obtained at an excitation wavelength of 340 and 380 nm using the Argus/HiSCA system (Hamamatsu Photonics). The 340/380 nm fluorescence ratio was converted to [Ca^2+]i as described previously (Cell, 88, 49-55, 1997).

Cc1onc(O)c1CC(N)C(=O)O (stereo not drawn) [AMPA, α-amino-3-hydroxy-5-methyl-4-isoxazole propionic acid]
cells in which the increase in [Ca^2+]i was detected (200 μM AMPA + 100 μM CTZ, 16 culture dishes): 65±15%
[Ca^2+]i during application of AMPA together with CTZ (200 μM AMPA + 100 μM cyclothiazide, primary culture, n=150): 285 ± 120 nM
